Protein sequences, listed by entry. Tags and fused reporters are not part of them.
UniProt P43220, whole entry: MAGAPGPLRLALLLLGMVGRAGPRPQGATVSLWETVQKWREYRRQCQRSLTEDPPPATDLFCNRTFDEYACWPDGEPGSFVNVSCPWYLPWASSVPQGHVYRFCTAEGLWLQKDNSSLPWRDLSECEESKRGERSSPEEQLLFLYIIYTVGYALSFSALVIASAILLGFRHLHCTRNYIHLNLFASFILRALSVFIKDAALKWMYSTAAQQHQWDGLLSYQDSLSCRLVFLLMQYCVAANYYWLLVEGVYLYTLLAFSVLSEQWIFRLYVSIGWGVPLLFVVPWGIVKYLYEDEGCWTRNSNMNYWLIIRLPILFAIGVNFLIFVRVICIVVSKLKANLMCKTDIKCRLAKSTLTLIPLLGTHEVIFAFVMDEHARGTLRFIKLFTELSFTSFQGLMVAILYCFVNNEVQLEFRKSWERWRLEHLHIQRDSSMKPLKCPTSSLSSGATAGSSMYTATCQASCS

According to ChEMBL document CHEMBL4219047, “Optimization of peptide-based polyagonists for treatment of diabetes and obesity” (Bioorg Med Chem, 2018):

Target: Glucagon-like peptide 1 receptor (Homo sapiens, UniProt P43220)
Assay: Agonist activity at human GLP1 receptor expressed in CHO cells assessed as increase in cAMP level by TR-FRET assay relative to GLP1
Type: functional, cell-based

Sequence: GLUCAGON
- Activity: 0.2%
